Reference: US20230064363A1, “MATURATION OF SPERMATOGONIAL CELLS IN VITRO BT GROWTH FACTORS AND HORMONES” (B.G. Negev Technologies & Applications Ltd., at Ben-Gurion …, priority 2020, published 2023)

System: spermatogonial cells isolated from CP-treated immature mice
Assay: In vitro culture in MCS of seminiferous tubule cells from CP-treated immature mice; marker-positive cells by immunofluorescence staining
Format: cell-based
[1] = after 4-5 weeks culture in MCS, FSH 7.5 IU/ml, IL-1α 20 pg/ml or TNF-α 20 pg/ml from the beginning, testosterone 10^−7 M at the last week

Substance: FSH: follicle stimulating hormone (Serono), 7.5 IU/ml
- ACROSIN (meiotic/postmeiotic marker), percentage of stained cells [1]: 43.92%
- BOULE (meiotic marker), percentage of stained cells [1]: 20.6%
- C-KIT (pre-meiotic marker), percentage of stained cells [1]: 22.42%
- CD9 (pre-meiotic marker), percentage of stained cells [1]: 25.62%
- CREM (meiotic marker), percentage of stained cells [1]: 35.16%
- GFR-a (pre-meiotic marker), percentage of stained cells [1]: 18.97%
- VASA (pre-meiotic marker), percentage of stained cells [1]: 24.04%
- a-6-INTG (pre-meiotic marker), percentage of stained cells [1]: 18.8%
- percentage of premeiotic, meiotic and meiotic/postmeiotic examined cells developed in MCS (compared to cells cultured in control medium): did not show any significant effect
